From ChEMBL document CHEMBL2407029, “Sandmeyer reaction repurposed for the site-selective, non-oxidizing radioiodination of fully-deprotected peptides: studies on the endogenous opioid peptide α-neoendorphin” (Bioorg Med Chem Lett, 2013)

Amino acid sequences for entries named in this document (tags omitted).
UniProt P35372, whole entry: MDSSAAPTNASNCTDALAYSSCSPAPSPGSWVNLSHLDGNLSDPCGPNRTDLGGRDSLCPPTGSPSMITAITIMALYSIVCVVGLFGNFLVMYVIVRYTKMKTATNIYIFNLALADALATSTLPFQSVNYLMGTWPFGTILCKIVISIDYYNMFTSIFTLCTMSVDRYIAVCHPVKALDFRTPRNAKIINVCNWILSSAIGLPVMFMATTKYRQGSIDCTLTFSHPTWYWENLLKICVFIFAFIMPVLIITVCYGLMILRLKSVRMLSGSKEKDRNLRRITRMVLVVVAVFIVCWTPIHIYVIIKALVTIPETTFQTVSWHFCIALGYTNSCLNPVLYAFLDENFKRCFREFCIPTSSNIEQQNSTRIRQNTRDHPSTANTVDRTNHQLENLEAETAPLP

Key:
Mu-type opioid receptor = Mu-type opioid receptor (Homo sapiens, UniProt P35372); test: Displacement of [125]IBNtxA from MOR-1 (unknown origin) transfected in CHO cells after 90 mins by competitive binding assay; type: cell-based
[1] = Displacement of [131I]-[D-Ala2,4'-I-Phe8]alpha-Neoendorphin from opioid receptor in CD-1 mouse brain after 90 mins by competitive binding assay; type: tissue-based

Structure (SMILES) | Ki (Mu-type opioid receptor) [nM] | Ki [1] [nM]
CC(C)C[C@H](NC(=O)[C@H](Cc1ccccc1)NC(=O)CNC(=O)CNC(=O)[C@@H](N)Cc1ccc(O)cc1)C(=O)N[C@@H](CCCNC(=N)N)C(=O)N[C@@H](CCCCN)C(=O)N[C@@H](Cc1ccc(O)cc1)C(=O)N1CCC[C@H]1C(=O)N[C@@H](CCCCN)C(=O)O | 7.3 | –
CC1(C)SSC(C)(C)C(NC(=O)[C@@H](N)Cc2ccc(O)cc2)C(=O)NCC(=O)N[C@H](Cc2ccccc2)C(=O)NC1C(=O)O (stereo in doubt) | – | 3.8
